Experimental data reported in article PMC9508125, “The evolutionary advantage of an aromatic clamp in plant family 3 glycoside exo-hydrolases” (Nature Communications, 2022).

Test system: Cellobiose
Assay: purified protein, by the assay type
Conditions: apparent, substance is the substrate, pH 5.25, 30.0 °C

Work on “HvExoI W434H mutant (Hordeum vulgare subsp. vulgare; W459H)” yielded a Km (other: W434H) of 2800 ± 100 µM, a kcat (other: W434H) of 1.2 ± 0.1 s⁻¹ and a kcat/Km (other: W434H) of 400 ± 10 M⁻¹ s⁻¹.
With “HvExoI W286Y mutant (Hordeum vulgare subsp. vulgare; W311Y)” the Km (other: W286Y) was 1400 ± 100 µM, the kcat (other: W286Y) was 4.5 ± 0.3 s⁻¹ and the kcat/Km (other: W286Y) was 3200 ± 400 M⁻¹ s⁻¹.
Work on “HvExoI W434F mutant (Hordeum vulgare subsp. vulgare; W459F)” yielded a Km (other: W434F) of 1200 ± 200 µM, a kcat (other: W434F) of 0.6 ± 0.03 s⁻¹ and a kcat/Km (other: W434F) of 500 ± 20 M⁻¹ s⁻¹.
Substance “WT HvExoI (Hordeum vulgare subsp. vulgare)” has a Km (other: WT) of 1200 ± 100 µM, a kcat (other: WT) of 4.4 ± 0.1 s⁻¹ and a kcat/Km (other: WT) of 3700 ± 200 M⁻¹ s⁻¹.
In the case of “HvExoI W286F/W434F mutant (Hordeum vulgare subsp. vulgare; W311F/W459F)”, the Km (other: W286F/W434F) is reported as 1500 ± 300 µM, the kcat (other: W286F/W434F) is reported as 0.02 ± 0.001 s⁻¹ and the kcat/Km (other: W286F/W434F) is reported as 10 ± 1 M⁻¹ s⁻¹.
